Measurements taken from patent publication US11173119B2, “Nanolipogel vehicles for controlled delivery of different pharmaceutical agents” (YALE UNIVERSITY, priority 2012, dated 2021).

Key:
[1] = test system: Splenocytes; test: IL-2 bioactivity study (splenocyte stimulation, IFN-γ ELISA); format: cell-based, B6 mouse; conditions: IFN-γ production correlated with IL-2 concentration
Method: Cumulative release of nLG-IL-2 was performed at 1, 3, 5, and 7 days in complete media [RPMI media (Gibco) with 10% fetal bovine serum (Atlanta Biological) and penicillin/streptomycin (Sigma) supplemented with L-glutamine (Sigma), non-essential amino acids (Gibco), Hepes buffer (Sigma), gentamicin (Sigma), and β-mercaptoethanol (Sigma)]. Splenocytes were isolated from a B6 mouse and 1×10^6 cells were added in 500 μL T cell media to each well of a 24 well plate previously coated with 10 μg/mL anti-CD3 (coated overnight in 1×PBS at 4° C.) and 5 μg/mL soluble anti-CD28 (BD Biosciences). The media from release studies was filtered through a 0.22-μm syringe filter (Whatman) and 500 μL was added to the wells. Additionally all wells contained 5 μg/mL, soluble anti-CD28 (BD Biosciences). Soluble IL-2 was added at varying concentrations to control wells to as a standard. Cells were incubated at 37° C. and cellular stimulation was assessed after 72 hours using an IFN-γ ELISA (BD Biosciences).

[2] = test system: metastatic melanoma; conditions: high dose IL-2; cited from earlier work

## IL-2: immunostimulatory protein, soluble 17 kDa cytokine
[1]
  bioactivity after lipogel incorporation: unaffected
[2]
  patients achieving durable complete remissions: Approximately 5%
